Assay results: PubChem BioAssay (NCI)
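1) Cells in 96-well plates. 2) Compound, 48 h, 5 concentrations. 3) Linear interpolation between surrounding doses. 4) Unreached endpoint = highest concentration. GI50 is the concentration that inhibits growth by half. Definition used: TGI = concentration required for complete inhibition of growth.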

What was measured:
Test in all cases: NCI anticancer screen, dose series, 48 h
KM12 colon = tested on: KM12 colon
SR leukemia = tested on: SR leukemia
SK-MEL-2 melanoma = tested on: SK-MEL-2 melanoma
HCC-2998 colon = tested on: HCC-2998 colon
XF 498 CNS = tested on: XF 498 CNS
CCRF-CEM leukemia = tested on: CCRF-CEM leukemia
KM20L2 colon = tested on: KM20L2 colon
OVCAR-8 ovarian = tested on: OVCAR-8 ovarian
HT29 colon = tested on: HT29 colon
A549 NSCLC = tested on: A549 NSCLC
OVCAR-3 ovarian = tested on: OVCAR-3 ovarian
K-562 leukemia = tested on: K-562 leukemia
786-0 renal = tested on: 786-0 renal
SNB-78 CNS = tested on: SNB-78 CNS
A498 renal = tested on: A498 renal
EKVX NSCLC = tested on: EKVX NSCLC
SK-MEL-28 melanoma = tested on: SK-MEL-28 melanoma
SF-539 CNS = tested on: SF-539 CNS
HL-60(TB) leukemia = tested on: HL-60(TB) leukemia
HCT-116 colon = tested on: HCT-116 colon
U251 CNS = tested on: U251 CNS
HOP-92 NSCLC = tested on: HOP-92 NSCLC
HOP-18 NSCLC = tested on: HOP-18 NSCLC
NCI-H522 lung = tested on: NCI-H522 lung
NCI-H322M lung = tested on: NCI-H322M lung
SNB-19 CNS = tested on: SNB-19 CNS
NCI-H23 lung = tested on: NCI-H23 lung
SN12C renal = tested on: SN12C renal
MOLT-4 leukemia = tested on: MOLT-4 leukemia
LXFL 529 NSCLC = tested on: LXFL 529 NSCLC
DMS 114 small cell lung = tested on: DMS 114 small cell lung
TK-10 renal = tested on: TK-10 renal
DLD-1 colon = tested on: DLD-1 colon
UACC-62 melanoma = tested on: UACC-62 melanoma
SF-295 CNS = tested on: SF-295 CNS
IGROV1 ovarian = tested on: IGROV1 ovarian
OVCAR-4 ovarian = tested on: OVCAR-4 ovarian
M14 melanoma = tested on: M14 melanoma
HOP-62 NSCLC = tested on: HOP-62 NSCLC
MALME-3M melanoma = tested on: MALME-3M melanoma
HCT-15 colon = tested on: HCT-15 colon
UO-31 renal = tested on: UO-31 renal
UACC-257 melanoma = tested on: UACC-257 melanoma
RXF 393 renal = tested on: RXF 393 renal
OVCAR-5 ovarian = tested on: OVCAR-5 ovarian
CAKI-1 renal = tested on: CAKI-1 renal
SK-MEL-5 melanoma = tested on: SK-MEL-5 melanoma
M19-MEL melanoma = tested on: M19-MEL melanoma
DMS 273 small cell lung = tested on: DMS 273 small cell lung
NCI-H460 lung = tested on: NCI-H460 lung
SNB-75 CNS = tested on: SNB-75 CNS
SF-268 CNS = tested on: SF-268 CNS
ACHN renal = tested on: ACHN renal
LOX IMVI melanoma = tested on: LOX IMVI melanoma
NCI-H226 lung = tested on: NCI-H226 lung
COLO 205 colon = tested on: COLO 205 colon

CC[C@H](C)[C@H]1NC(=O)/C(=C(\C)O)C1=O
GI50 (KM12 colon): 96.4 µM | TGI (KM12 colon): > 100 µM | GI50 (SR leukemia): 58.3 µM | TGI (SR leukemia): > 100 µM | GI50 (SK-MEL-2 melanoma): 95.3 µM | TGI (SK-MEL-2 melanoma): > 100 µM | GI50 (HCC-2998 colon): 53.9 µM | TGI (HCC-2998 colon): > 100 µM | GI50 (XF 498 CNS): > 100 µM | TGI (XF 498 CNS): > 100 µM | GI50 (CCRF-CEM leukemia): 52.3 µM | TGI (CCRF-CEM leukemia): > 100 µM | GI50 (KM20L2 colon): > 100 µM | TGI (KM20L2 colon): > 100 µM | GI50 (OVCAR-8 ovarian): > 100 µM | TGI (OVCAR-8 ovarian): > 100 µM | GI50 (HT29 colon): > 100 µM | TGI (HT29 colon): > 100 µM | GI50 (A549 NSCLC): > 100 µM | TGI (A549 NSCLC): > 100 µM | GI50 (OVCAR-3 ovarian): 73 µM | TGI (OVCAR-3 ovarian): > 100 µM | GI50 (K-562 leukemia): > 100 µM | TGI (K-562 leukemia): > 100 µM | GI50 (786-0 renal): 98.7 µM | TGI (786-0 renal): > 100 µM | GI50 (SNB-78 CNS): > 100 µM | TGI (SNB-78 CNS): > 100 µM | GI50 (A498 renal): > 100 µM | TGI (A498 renal): > 100 µM | GI50 (EKVX NSCLC): > 100 µM | TGI (EKVX NSCLC): > 100 µM | GI50 (SK-MEL-28 melanoma): 63.9 µM | TGI (SK-MEL-28 melanoma): > 100 µM | GI50 (SF-539 CNS): > 100 µM | TGI (SF-539 CNS): > 100 µM | GI50 (HL-60(TB) leukemia): 99.7 µM | TGI (HL-60(TB) leukemia): > 100 µM | GI50 (HCT-116 colon): 51.9 µM | TGI (HCT-116 colon): > 100 µM | GI50 (U251 CNS): 52.7 µM | TGI (U251 CNS): > 100 µM | GI50 (HOP-92 NSCLC): > 100 µM | TGI (HOP-92 NSCLC): > 100 µM | GI50 (HOP-18 NSCLC): 58.1 µM | TGI (HOP-18 NSCLC): > 100 µM | GI50 (NCI-H522 lung): 88.6 µM | TGI (NCI-H522 lung): > 100 µM | GI50 (NCI-H322M lung): > 100 µM | TGI (NCI-H322M lung): > 100 µM | GI50 (SNB-19 CNS): 78.4 µM | TGI (SNB-19 CNS): > 100 µM | GI50 (NCI-H23 lung): > 100 µM | TGI (NCI-H23 lung): > 100 µM | GI50 (SN12C renal): 83.6 µM | TGI (SN12C renal): > 100 µM | GI50 (MOLT-4 leukemia): > 100 µM | TGI (MOLT-4 leukemia): > 100 µM | GI50 (LXFL 529 NSCLC): 66.6 µM | TGI (LXFL 529 NSCLC): > 100 µM | GI50 (DMS 114 small cell lung): 76.7 µM | TGI (DMS 114 small cell lung): > 100 µM | GI50 (TK-10 renal): > 100 µM | TGI (TK-10 renal): > 100 µM | GI50 (DLD-1 colon): 70.3 µM | TGI (DLD-1 colon): > 100 µM | GI50 (UACC-62 melanoma): 97.5 µM | TGI (UACC-62 melanoma): > 100 µM | GI50 (SF-295 CNS): > 100 µM | TGI (SF-295 CNS): > 100 µM | GI50 (IGROV1 ovarian): > 100 µM | TGI (IGROV1 ovarian): > 100 µM | GI50 (OVCAR-4 ovarian): 96 µM | TGI (OVCAR-4 ovarian): > 100 µM | GI50 (M14 melanoma): > 100 µM | TGI (M14 melanoma): > 100 µM | GI50 (HOP-62 NSCLC): > 100 µM | TGI (HOP-62 NSCLC): > 100 µM | GI50 (MALME-3M melanoma): > 100 µM | TGI (MALME-3M melanoma): > 100 µM | GI50 (HCT-15 colon): 79.9 µM | TGI (HCT-15 colon): > 100 µM | GI50 (UO-31 renal): > 100 µM | TGI (UO-31 renal): > 100 µM | GI50 (UACC-257 melanoma): 51.6 µM | TGI (UACC-257 melanoma): > 100 µM | GI50 (RXF 393 renal): 23.3 µM | TGI (RXF 393 renal): 78 µM | GI50 (OVCAR-5 ovarian): > 100 µM | TGI (OVCAR-5 ovarian): > 100 µM | GI50 (CAKI-1 renal): > 100 µM | TGI (CAKI-1 renal): > 100 µM | GI50 (SK-MEL-5 melanoma): 98.8 µM | TGI (SK-MEL-5 melanoma): > 100 µM | GI50 (M19-MEL melanoma): 71.3 µM | TGI (M19-MEL melanoma): > 100 µM | GI50 (DMS 273 small cell lung): > 100 µM | TGI (DMS 273 small cell lung): > 100 µM | GI50 (NCI-H460 lung): 80 µM | TGI (NCI-H460 lung): > 100 µM | GI50 (SNB-75 CNS): 91.2 µM | TGI (SNB-75 CNS): > 100 µM | GI50 (SF-268 CNS): 55.2 µM | TGI (SF-268 CNS): > 100 µM | GI50 (ACHN renal): > 100 µM | TGI (ACHN renal): > 100 µM | GI50 (LOX IMVI melanoma): 62.3 µM | TGI (LOX IMVI melanoma): > 100 µM | GI50 (NCI-H226 lung): > 100 µM | TGI (NCI-H226 lung): > 100 µM | GI50 (COLO 205 colon): > 100 µM | TGI (COLO 205 colon): > 100 µM
